Results as given in ChEMBL document CHEMBL1133367, “Structure-activity relationship studies of chloromethyl ketone derivatives for selective human chymase inhibitors” (Bioorg Med Chem Lett, 2000).

Protein sequences, listed by entry. Tags and fused reporters are not part of them.
UniProt P00761, whole entry: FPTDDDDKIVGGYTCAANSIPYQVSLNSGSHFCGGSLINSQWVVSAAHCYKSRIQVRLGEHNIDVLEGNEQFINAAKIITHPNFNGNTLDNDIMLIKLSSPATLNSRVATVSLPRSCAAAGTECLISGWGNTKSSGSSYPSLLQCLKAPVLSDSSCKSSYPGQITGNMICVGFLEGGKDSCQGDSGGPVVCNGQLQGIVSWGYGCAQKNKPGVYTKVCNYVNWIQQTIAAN

Biological target: Trypsin (Sus scrofa, UniProt P00761)
Assay: Inhibitory activity against porcine pancreatic trypsin (TRP)

O=C(CCc1ccccc1F)N[C@@H](Cc1ccccc1)C(=O)CCl
IC50: > 1 mM
